# Experimental data reported in ChEMBL document CHEMBL2311304, “Design, synthesis and in vitro and in vivo antitumor activities of novel bivalent β-carbolines” (Eur J Med Chem, 2013).
# Test system: Mus musculus
# Test: Acute toxicity in ip treated C57BL/6 mouse for 14 days
# Format: organism-based
# Conditions: in vivo, 336 h
# Summary of the method: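 C57BL/6 mice (9–12 weeks, 18–22 g) were fasted overnight with free water. They received single i.p. doses of 1.0–500 mg kg-1 in 0.5% CMC-Na, 10 mice per group (5 male, 5 female). Mice were watched continuously for 2 h, then intermittently to 24 h, then occasionally to 14 days. Heart, liver and kidneys were checked macroscopically. LD50 was derived graphically.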
row,SMILES,LD50 [mg/kg]
1,c1ccc2c(c1)c1ccncc1n2CCCCn1c2ccccc2c2ccncc21,200
2,Cc1nccc2c3ccccc3n(CCCCCCn3c4ccccc4c4ccnc(C)c43)c12,200
3,Cc1nccc2c3ccccc3n(CCCCn3c4ccccc4c4ccnc(C)c43)c12,200
4,COc1ccc2c3ccnc(C)c3n(CCCCn3c4cc(OC)ccc4c4ccnc(C)c43)c2c1,50
